Key:
[1] = test system: Sema3A-mediated axonal repulsion of NGF-dependent DRG axons; assay: in vitro rat DRG growth cone repulsion assay using Sema 3A-secreting 293 cells; assay type: cell-based; conditions: inhibitor in growth media, several concentrations; much higher EC than EGCG concentration required
Description: FIG. 4A provides a schematic diagram of the rat D E14/15 Rat DRG explants were co-cultured with 293 cells expressing Sema 3A and grown for 48 hours in the presence of an inhibitor or vehicle. Axonal outgrowth was determined by measuring proximal (P) and distal (D) axon lengths.
DRG repulsion assays were performed as described (Messersmith et al., 1995).
Scoring was done by splitting explants into quadrants and scoring all growth cones as either collapsed or not-collapsed.

[2] = target: T1, matrix metalloproteinase MMP-2 (Homo sapiens, UniProt P08253); conditions: similar concentrations of EGCG; cited from earlier work
T1 sequence (P08253 110-660): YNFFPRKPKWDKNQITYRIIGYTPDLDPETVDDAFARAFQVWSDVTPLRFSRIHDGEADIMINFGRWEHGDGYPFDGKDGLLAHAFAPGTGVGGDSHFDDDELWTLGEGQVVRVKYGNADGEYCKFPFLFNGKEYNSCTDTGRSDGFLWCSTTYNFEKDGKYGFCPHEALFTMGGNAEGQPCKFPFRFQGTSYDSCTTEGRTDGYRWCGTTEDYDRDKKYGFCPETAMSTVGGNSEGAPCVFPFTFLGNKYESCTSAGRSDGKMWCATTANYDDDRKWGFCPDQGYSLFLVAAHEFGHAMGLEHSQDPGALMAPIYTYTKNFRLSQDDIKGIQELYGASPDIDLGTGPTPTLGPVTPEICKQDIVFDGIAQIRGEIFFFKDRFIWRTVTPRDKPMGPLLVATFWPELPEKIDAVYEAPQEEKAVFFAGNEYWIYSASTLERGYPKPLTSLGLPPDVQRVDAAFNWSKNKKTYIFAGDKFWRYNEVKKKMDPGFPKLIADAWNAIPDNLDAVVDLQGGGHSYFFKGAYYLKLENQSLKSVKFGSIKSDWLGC

## (−)-epigallocatechin gallate [EGCG]
[1]
  attenuation of Sema3A-mediated axonal repulsion (P/D ratio): in a dose-dependent manner
[2]
  inhibition of MMP-2: inhibit

Reference: patent US20030232419A1, “Molecules interacting with CASL (MICAL) polynucleotides, polypeptides, and methods of using the same” (priority 2002, published 2003)
